{"source": "patent US7371411B2", "about": "“Methods for production of the oxidized glutathione composite with CIS-diamminedichloroplatinum and pharmaceutical compositions based thereof regulating metabolism, proliferation, differentiation and apoptotic mechanisms for normal and transformed cells” (Novelos Therapeutics, Inc., priority 1998, dated 2008)", "conditions": "single intravenous introduction, 2 and 20 mg/kg; blood serum, liver, kidneys, spleen, lymphocytes", "data": [{"substance": "bis-(γ-L-glutamyl)-L-cysteinyl-bis-glycine [GSSG]", "values": [{"measurement": "concentration to the 10th minute relative to the initial one", "result": "almost equal to the initial one"}]}]}
